The subject of experiment [1] is Human Endometrial Ishikawa Cells. Kind of experiment: Alkaline Phosphatase Assay in Human Endometrial Ishikawa Cells. As to conditions: alkaline phosphatase activity, 3 days; for pEC50: read-out: Ishikawa Agonist EC50, agonist mode; for pIC50: read-out: Ishikawa Antagonist IC50, antagonist mode, 10 nM 17β-estradiol added. How it is done: Alkaline Phosphatase Assay in Human Endometrial Ishikawa Cells
This assay was run according to the procedure described by Albert et a., Cancer Res, […], 50(11), 330-6-10, with minor modification.
Ishikawa cells (from ATCC) were maintained in DMEM/F12 (1:1) phenol red free medium (Gibco) supplemented with 10% calf serum (Hyclone). 24 hours prior to testing, the medium was changed to DMEM/F12 (1:1) phenol red free containing 2% calf serum.
Compounds to be tested in the agonist mode were added to the culture media at varying concentrations. Compounds to be treated in the antagonist mode were prepared similarly, and 10 nM 17β-estradiol was also added to the culture media. The cells were then incubated at 37° C. for 3 days. On the fourth day, the media was remove, 1 volume of 1× Dilution Buffer (Clontech) was added to the well followed by addition of 1 volume of Assay Buffer (Clontech). The cells were then incubated at room temperature for 5 minutes. 1 volume of freshly prepared Chemiluminescence Buffer (1 volume of chemiluminescent substrate (CSPD) in 19 volume Chemiluminescent Enhancer with final concentration of CSPD at 1.25 mM; Sigma Chemical Co.) was added. The cells were incubated at room temperature for 10 minutes and then quantified on a luminometer. The increase of chemiluminescence over vehicle control was used to calculate the increase in alkaline phosphatase activity.
(§1) Representative compound of the present invention were tested according to the procedure described in Examples 14 and 15 above, with results as listed in Table. 7.

By UniProt entry, the sequences of proteins in these tests, tags left out.
UniProt P03372, whole entry: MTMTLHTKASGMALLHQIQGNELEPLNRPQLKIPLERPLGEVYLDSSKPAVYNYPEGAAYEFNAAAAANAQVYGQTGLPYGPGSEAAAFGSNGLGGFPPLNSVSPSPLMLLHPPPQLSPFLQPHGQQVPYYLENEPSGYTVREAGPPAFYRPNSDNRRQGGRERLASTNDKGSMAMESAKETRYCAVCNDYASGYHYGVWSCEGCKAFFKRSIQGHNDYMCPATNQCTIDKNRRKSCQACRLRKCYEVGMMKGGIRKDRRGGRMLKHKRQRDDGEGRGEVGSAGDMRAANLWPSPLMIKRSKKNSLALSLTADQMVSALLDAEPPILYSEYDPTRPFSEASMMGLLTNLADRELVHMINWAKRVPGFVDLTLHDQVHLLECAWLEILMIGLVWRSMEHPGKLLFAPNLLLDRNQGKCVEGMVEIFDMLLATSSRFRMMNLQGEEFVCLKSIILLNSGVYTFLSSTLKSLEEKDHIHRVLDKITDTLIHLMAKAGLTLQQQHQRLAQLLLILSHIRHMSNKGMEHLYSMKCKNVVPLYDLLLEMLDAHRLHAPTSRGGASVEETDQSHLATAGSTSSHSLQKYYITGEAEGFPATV
UniProt Q92731, whole entry: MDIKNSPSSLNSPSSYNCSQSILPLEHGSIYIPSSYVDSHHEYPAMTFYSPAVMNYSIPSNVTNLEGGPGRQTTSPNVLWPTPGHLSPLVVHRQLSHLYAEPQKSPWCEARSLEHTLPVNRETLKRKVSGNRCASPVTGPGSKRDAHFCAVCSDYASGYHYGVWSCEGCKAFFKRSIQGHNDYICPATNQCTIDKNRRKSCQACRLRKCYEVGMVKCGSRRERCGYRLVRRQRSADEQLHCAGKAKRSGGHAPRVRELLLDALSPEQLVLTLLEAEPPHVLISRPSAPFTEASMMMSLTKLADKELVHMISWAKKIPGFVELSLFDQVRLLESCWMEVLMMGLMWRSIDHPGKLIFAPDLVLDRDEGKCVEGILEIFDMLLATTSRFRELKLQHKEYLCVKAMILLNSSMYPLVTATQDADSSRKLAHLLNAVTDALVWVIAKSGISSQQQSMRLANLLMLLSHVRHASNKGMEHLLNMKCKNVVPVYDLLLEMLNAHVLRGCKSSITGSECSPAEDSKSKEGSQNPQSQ

Experiment [2] addresses human estrogen receptor α (Homo sapiens, UniProt P03372). Nature of the experiment: Estrogen Receptor α Flash Plate Assay. As to conditions: read-out: ERα Binding IC50; displacement of radio-labeled estrogen, FlashPlate. How it is done:
Estrogen Receptor α Flash Plate Assay
This assay monitors binding of radio-labeled estrogen to the estrogen receptor. It is performed on a BioMek 2000 (Beckman). Plates are read in a scintillation counter (Packard TopCount), with decreased counts an indication of binding of a compound to the receptor. The assay was run according to the procedure described by Allan, et al., Anal. Biochem. (1999), 275(2), 243–247.
On day one, 100 μL of Estrogen Screening Buffer (ESB, Panvera) containing 5 mM dithiothreitol (DTT, Panvera), 0.5 μg mouse anti-estrogen receptor monoclonal antibody (SRA-1010, Stressgen) and 50 ng purified human estrogen receptor α (Panvera) were added to each well of a 96 well FlashPlate Plus plate crosslinked with goat anti-mouse antibodies (NEN Life Sciences). The plate was sealed and incubated at 4° C. overnight.
On day two, each well was washed three times with 200 μL PBS, pH 7.2, at room temperature. To each well was then added 98 μL radio-labeled estrogen (0.5 nM, which equals 6 nCi for a 120 Ci/mmol batch, Amersham), diluted in ESB and 5 mM dithiothreitol (DTT). To individual wells were then added 2.5 μL test compound diluted in 30% (v/v) dimethyl sulfoxide/50 mM HEPES, pH 7.5. The wells were mixed three times by aspiration, the plate sealed and incubated at room temperature for one hour. The wells were then counted for 1 min in a TopCount scintillation counter (Packard). […]

Another experiment deals with MCF-7 cells. Nature of the experiment: MCF-7 Cell Proliferation Assay. As to conditions: 14C-thymidine incorporation; for pEC50: read-out: MCF7 Agonist EC50, agonist mode; for pIC50: read-out: MCF7 Antagonist IC50, antagonist mode, 10 nM 17β-estradiol added. How it is done:
MCF-7 Cell Proliferation Assay
This assay was run according to the procedure described by Welshons, et al., (Breast Cancer Res. Treat., 1987, 10(2), 169–75), with minor modification.
Briefly, MCF-7 cells (from Dr. C. Jordan, Northwestern University) were maintained in RPMI 1640 phenol red free medium (Gibco) in 10% FBS (Hyclone), supplemented with bovine insulin and non-essential amino acid (Sigma). The cells were initially treated with 4-hydroxytamoxifen (10^−8 M) and let stand at 37° C. for 24 hours. Following this incubation with tamoxifen, the cells were treated with compounds at various concentrations.
Compounds to be tested in the agonist mode were added to the culture media at varying concentrations. Compounds to be treated in the antagonist mode were prepared similarly, and 10 nM 17β-estradiol was also added to the culture media. The cells were incubated for 24 hours at 37° C. Following this incubation, 0.1 μCi of ^14C-thymidine (56mCi/mmol, Amersham) was added to the culture media and the cells were incubated for an additional 24 hours at 37° C. The cells were then washed twice with Hank's buffered salt solution (HBSS) (Gibco) and counted with a scintillation counter. The increase in the ^14C-thymidine in the compound treated cells relative to the vehicle control cells were reported as percent increase in cell proliferation.
as §1
(In general: Uptake of a labelled nucleoside into DNA is a usual measure of proliferation.)

A further experiment has as its target hER-β (Homo sapiens, UniProt Q92731). Nature of the experiment: Estrogen Receptor β Fluorescence Polarization Assay. As to conditions: read-out: ERβ Binding IC50; displacement of Fluormone ES2, fluorescence polarization. An excerpt:
Estrogen Receptor β Fluorescence Polarization Assay
This assay monitors binding of a fluorescent analog of estrogen (Fluormone ES2, Panvera) to the estrogen receptor. Plates are read in a fluorometer that can be set to polarization mode. A decrease in […] relative to vehicle control is an indication of binding of a compound to the receptor.
It is crucial to avoid introduction of air bubbles into the reaction in each well of the 96 well plate throughout this procedure. (Bubbles on the surface of the reaction disrupt light flow, affecting the polarization reading.) However, it is also crucial to effectively mix the reaction components upon addition to the well.
On ice, a 2× standard mixture of Assay Buffer (Panvera), 10 nM DTT and 40 nM ES2 was prepared. On ice, a 2× reaction mixture of Assay Buffer (Panvera), and 20 nM hER-β (Panvera) and 40 nM ES2 was also prepared.
Dilutions of test compound were prepared in 30% (v/v) dimethyl sulfoxide/50 mM HEPES, pH 7.5. At this point, the dilutions were 40× the final required concentration.
The standard mixture at 50 μL was then added to each well. The reaction mixture at 48 μL was added to all wells. The compound dilution at 2.5 μL was added to the appropriate wells. […]
Each well on the plate was then read in an LjL Analyst with an excitation wavelength of […] and an emission wavelength of 538. […]
Background: In fluorescence polarisation assays a small probe gives low polarisation when free and higher when bound to something large.

pEC50, pIC50: −log10 of the molar value. Where “and” joins values, the source holds several entries; their conditions need not be identical. Equal entries are not always repeated. Bounds are passed on as bounds.

The pEC50 is the EC50 on a negative log10 scale, so that one unit is a factor of ten. One may read the pIC50 as −log10 of the IC50, conventionally taken in molar units.

Take `CCOC(=O)C1CC=C(c2ccc(F)cc2)C(Cc2ccc(OCCN3CCCCC3)cc2)C1C` (stereo not drawn): the negative logarithm of the EC50 (pEC50) (in experiment [1]; in the experiment with MCF-7 cells) was < 5.00 in each case. Also, the pIC50 in experiment [1] is 5.15; in experiment [2], 5.35; with MCF-7 cells, < 5.00; at hER-β it was < 5.00.
For the molecule `CCOC(=O)C1CC=C(c2ccc3[nH]ccc3c2)C(Cc2ccc(OCCN3CCCCC3)cc2)C1C` (stereo not drawn), the pEC50 (in experiment [1]; in the experiment on MCF-7 cells) was < 5.00 in each case. Also, the negative-log IC50 (pIC50) in experiment [1] was 5.57; in experiment [2] it was 7.35; in the experiment on MCF-7 cells, 5.30; on hER-β, < 5.00 and 5.10.

The values are drawn from US7183445B2, “Cyclohexyl derivatives as selective estrogen receptor modulators” (Janssen Pharmaceutica N.V, priority 2004, dated 2007).
